Measurements reported in publication PMC9235857 (Molecular Cell, 2022).

B1: CENP-M (natural protein, human, UniProt Q9NSP4 1-180, looked up)
chain: MSVLRPLDKLPGLNTATILLVGTEDALLQQLADSMLKEDCASELKVHLAKSLPLPSSVNRPRIDLIVFVVNLHSKYSLQNTEESLRHVDASFFLGKVCFLATGAGRESHCSIHRHTVVKLAHTYQSPLLYCDLEVEGFRATMAQRLVRVLQICAGHVPGVSALNLLSLLRSSEGPSLEDL
B2: CENP-L (natural protein, human)
chain: MDSYSAPESTPSASSRPEDYFIGATPLQKRLESVRKQSSFILTPPRRKIPQCSQLQEDVDPQKVAFLLHKQWTLYSLTPLYKFSYSNLKEYSRLLNAFIVAEKQKGLAVEVGEDFNIKVIFSTLLGMKGTQRDPEAFLVQIVSKSQLPSENREGKVLWTGWFCCVFGDSLLETVSEDFTCLPLFLANGAESNTAIIGTWFQKTFDCYFSPLAINAFNLSWMAAMWTACKMDHYVATTEFLWSVPCSPQSLDISFAIHPEDAKALWDSVHKTPGEVTQEEVDLFMDCLYSHFHRHFKIHLSATRLVRVSTSVASAHTDGKIKILCHKYLIGVLAYLTELAIFQIE
B3: CENP-N (natural protein)
chain: not shown

Legend:
Assay in all cases: cryo-EM structure
[1] = biological target: B2
[2] = biological target: B3
[3] = biological target: CENP-C^[…] (human)

binding result [1] | binding result [2] | binding result [3] | Binder
binds | binds |  | B1
 |  | binds | B2
 |  | binds | B3
